Data taken from patent publication US20230242496A1, “SOX11 INHIBITORS FOR TREATING MANTLE CELL LYMPHOMA” (Icahn School of Medicine At Mount Sinai, priority 2020, published 2023).

Test system: Jeko-1 (SOX11+)
Test: Cell viability assay (CellTiter-Blue resazurin reduction)
Format: cell-based
Conditions: JeKo-1 cells, 20 μM compound, 72 hours, normalized to 0.2% DMSO
Procedure: Cell viability was determined by a fluorometric resazurin reduction method (CellTiter-Blue; Promega, Madison, Wis.) following the manufacturer's instructions. […] Cells were incubated for 72 hours. After incubation, 20 μl CellTiter-Blue Cell was added to each well and incubated for another 2 hours. […] The number of viable cells in each treated well was calculated, based on the linear least squares regression of the standard curve (OD vs. cell concentration). The viability of cells treated with compounds was normalized to the viability of cells treated with 0.2% Dimethyl sulfoxide (DMSO). Cell counts were confirmed with Trypan Blue Exclusion Assay on the Countess automated cell counter (Invitrogen) according to the manufacturer's specifications. The average and mean standard deviation were calculated from three separate experiments. IC50 values were calculated using the GraphPad Prism (version 4.00) based on a sigmoidal dose-response equation.

CC1Sc2ccc(C(=O)Nc3ccc(CNc4cccc(S(=O)(=O)F)c4)cc3)cc2NC1=O (stereo not shown)
Jeko-1 Viability at 20 μM (%): 19.74%
